Experimental data: patent publication US20240349732A1 (IMPETUS AGRICULTURE, published 2024)

Target: T1, 2Aa/1F/2Aa chimera (domains I and III of Cry2Aa, domain II of Cry1F) (biotin-labeled)
T1 chain: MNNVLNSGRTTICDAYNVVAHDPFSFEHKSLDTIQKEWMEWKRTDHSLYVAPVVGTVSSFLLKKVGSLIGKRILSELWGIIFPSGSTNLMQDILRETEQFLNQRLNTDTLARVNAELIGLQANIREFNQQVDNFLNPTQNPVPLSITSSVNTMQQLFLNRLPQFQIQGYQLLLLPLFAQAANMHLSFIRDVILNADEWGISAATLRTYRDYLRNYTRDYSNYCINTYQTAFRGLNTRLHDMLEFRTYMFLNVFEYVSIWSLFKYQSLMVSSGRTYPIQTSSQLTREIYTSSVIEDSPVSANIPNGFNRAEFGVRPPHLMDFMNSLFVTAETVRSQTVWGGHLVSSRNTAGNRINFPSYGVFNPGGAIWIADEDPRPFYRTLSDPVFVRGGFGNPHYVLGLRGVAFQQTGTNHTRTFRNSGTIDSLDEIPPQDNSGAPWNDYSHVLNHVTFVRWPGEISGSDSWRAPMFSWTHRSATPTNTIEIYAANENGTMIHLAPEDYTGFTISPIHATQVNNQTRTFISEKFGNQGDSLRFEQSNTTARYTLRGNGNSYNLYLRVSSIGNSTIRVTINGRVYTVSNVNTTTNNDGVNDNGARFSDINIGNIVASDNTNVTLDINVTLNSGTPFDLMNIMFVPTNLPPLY
Experiment: ELISA, nanobody coated, biotinylated 2Aa/1F/2Aa chimera in solution

Row | Binder | binding result
1 | Cry1F monospecific nanobody #7 (VHH) VHH: QVQLQESGGGSVQPGGSLKLSCAASGFTFSNYAMSWVRQAPGKGLEWVSGINAGGDTTNYADSVKDRFTISRDNAKNTLYLQMNSLKPEDTAIYYCLKLETSVVPSSSYYRNRGSRGQGTQVTVSS | binds
2 | Cry1F monospecific nanobody #51 (VHH) VHH: QVQLQESGGGLVQAGDSLRLSCAASEQSFNSEIMGWFRQAPGKEREFVAAITYSGSITKYADSAKGRFTISRDNAKNTVYLQMNSLNPEDTALYYCALNKGGLYTDYRSWATYDYRGQGTQVTVSS | binds
